Values quoted from earlier work, collected in patent US20230162361A1, “ASSESSMENT OF SKIN TOXICITY IN AN IN VITRO TISSUE SAMPLES USING DEEP LEARNING” (Genentech, Inc., priority 2020, published 2023).

Tests used:
[1] = clinical exposure, cetuximab label; cited from earlier work
[2] = tested on: skin; settings: human, in vivo; cited from earlier work

For Cetuximab, the Cmax_free [1] is given as 235 µg/mL and the Skin tox. [2] is given as “Yes”.
